From patent US10640495B2, “Heterocycle derivatives having TrkA inhibitory activity” (Shionogi & Co., Ltd., priority 2015, dated 2020) come the findings set out here.

Chains of the proteins cited; added tags and fusions are not shown. Residues count along the entry.
UniProt P04629, 440-796 limits assumed: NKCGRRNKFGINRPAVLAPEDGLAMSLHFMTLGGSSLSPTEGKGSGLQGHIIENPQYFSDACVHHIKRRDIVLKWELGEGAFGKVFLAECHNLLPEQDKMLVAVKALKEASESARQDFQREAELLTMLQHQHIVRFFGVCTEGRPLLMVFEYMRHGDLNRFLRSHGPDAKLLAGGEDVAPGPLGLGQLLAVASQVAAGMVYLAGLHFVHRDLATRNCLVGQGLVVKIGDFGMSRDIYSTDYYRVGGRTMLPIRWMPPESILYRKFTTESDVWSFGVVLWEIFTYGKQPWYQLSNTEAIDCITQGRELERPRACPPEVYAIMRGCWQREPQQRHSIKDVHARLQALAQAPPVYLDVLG

The target of the experiment is human TrkA (Homo sapiens (Human), UniProt P04629). The experiment in a line: Human TrkA inhibition assay (Test Example 2). On the procedure:
Seven point five μL per well of human TrkA (PV3144, Lifetechnologies, final concentration: 1 nmol/L) suspended in the assay buffer (100 mmol/L 4-(2-hydroxyethyl)-1-piperazineethanesulfonic acid (HEPES), 10 mmol/L magnecium chloride, 0.003 vol % Brij-35, 0.004 vol % Tween20 and 1 mmol/L dithiothreitol (DTT)) was applied in a 384 well plate and the plate was pre-incubated for 15 min at room temperature with 0.4 μL of each compound (final concentration: 200 μmol/L-1 pmol/L) dissolved in DMSO. Then, fluorescent substrate (FL-peptide 27, 760424, PerkinElmer, final concentration: 1.5 μmol/L) and ATP (final concentration 500 μmol/L) dissolved in the assay buffer was added in each well. After the incubation of 120 min at 37° C., fifteen μL of termination buffer (100 mmol/L HEPES, 40 mmol/L ethylenediaminetetraacetic acid (EDTA), 10 mmol/L magnecium chloride, 0.003 vol % Brij-35, 0.004 vol % Tween20, 1 mmol/L DTT and 0.16 vol % Coating Reagent 3) was added in each well to stop the enzyme reaction. Fluorescent intensities (FI) of phosphorylated and non-phosphorylated fluorescent substrates were measured by LabChip EZReader II (Caliper LifeSciences, Inc.), and conversion ratio (CR) was calculated by the following formula-1. […] The inhibitory effect of each compound on TrkA phosphorylation was calculated by the following formula-2. […]

By IC50 is commonly meant the point on the concentration scale where inhibition reaches its midpoint. As for `COCCN1C[C@@H](NC(=O)Nc2c(C)c(-c3cnc4c(c3)CN(C)C4=O)nn2-c2ccccc2)[C@H](c2cnc(F)c(F)c2)O1`, the concentration for half-maximal inhibition (IC50) (Table 155, human TrkA inhibition) was less than 0.1 µM.
Take `CCN1C[C@@H](NC(=O)Nc2c(C)c(-c3ccc(=O)n(C)c3)nn2-c2ccccc2)[C@H](c2ccc(F)c(F)c2)O1` (relative stereo): for the setting “Table 156, human TrkA inhibition”, the IC50 was less than 0.1 µM.
